Broadly, the Ki is the dissociation constant of the complex between target and ligand, obtained from inhibition or displacement.

Chains of the proteins cited; added tags and fusions are not shown. Residues count along the entry.
UniProt P78536, 215-477 S266A/N452Q limits assumed: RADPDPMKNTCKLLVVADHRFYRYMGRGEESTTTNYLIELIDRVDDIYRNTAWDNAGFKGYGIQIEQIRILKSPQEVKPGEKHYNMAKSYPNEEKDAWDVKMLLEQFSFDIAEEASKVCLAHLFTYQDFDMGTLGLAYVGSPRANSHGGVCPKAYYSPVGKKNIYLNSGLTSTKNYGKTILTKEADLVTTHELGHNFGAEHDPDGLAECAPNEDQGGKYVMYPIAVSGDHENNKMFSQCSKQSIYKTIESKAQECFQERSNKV

Data on 63 compounds can be found in patent publication US7488745B2, “Compounds for the treatment of inflammatory disorders” (Schering Corporation, priority 2004, dated 2009).

The target in one assay is purified catalytic domain of recombinant human TACE (rhTACEc) (Homo sapiens, UniProt P78536, N452Q/S266A). Description: TACE kinetic assay: cleavage of internally quenched peptide substrate SPDL-3 (fluorescence). To be noted: Ki (nM), Specific TACE inhibitory activity (Ki values).
With `COc1ccc2c(c1)C(=O)N(C[C@@]1(c3ccc(-c4cc(C)c5c(cnn5C(C)C)c4)cc3)NC(=O)NC1=O)C2` [Compound 7017], the inhibition constant (Ki) turned out to be 3.79 nM.
On the same count and under the same terms, the same measure for `COc1ccc2c(c1)C(=O)N(C[C@@]1(c3cc4cnccc4o3)NC(=O)NC1=O)C2` [Compound 9200]: 0.78 nM; for `O=C1NC(=O)[C@](CN2Cc3cc(OCC#CCO)ccc3C2=O)(c2ccc(F)cc2)N1` [Compound 239]: 0.11 nM; for `COc1cncc(-c2ccc([C@]3(CN4Cc5ccc(OC)cc5C4=O)NC(=O)NC3=O)cc2)c1` [Compound 4025]: 0.84 nM.
On the same count and under the same terms, with `O=C1NC(=O)[C@](CN2Cc3ccc(F)cc3C2=O)(c2ccc(-c3cccc4cccnc34)cc2)N1` [Compound 155] the figure was 1.05 nM.
Consider `COc1ccc2c(c1)C(=O)N(C[C@@]1(c3cc(C)no3)NC(=O)NC1=O)C2` [Compound 9256], for which the inhibition constant (Ki) amounted to 2.02 nM.
Same read-out and setting: with `COc1ccc2c(c1)C(=O)N(C[C@@]1(c3cc4ncc(F)cc4o3)NC(=O)NC1=O)C2` [Compound 9225] the figure was 1.18 nM.

The same assay, now with this note: Ki (nM), TABLE 6000; Ki printed as class symbols A-D.
Consider `COc1ccc2c(c1)C(=O)N(C[C@@]1(c3ccc(-c4ccc5nn(C)nc5c4)cc3)NC(=O)NC1=O)C2` [Compound 9714], for which the inhibition constant Ki is under 10 nM.
The same measure, in the same setting: the same measure for `COc1ccc2c(c1)C(=O)N(C[C@@]1(c3ccc(-c4ccc5c(c4)nnn5C)cc3)NC(=O)NC1=O)C2` [Compound 9715]: under 10 nM.
For `COc1ccc2c(c1)C(=O)N(C[C@@]1(c3cn(C4CCCC4)nn3)NC(=O)NC1=O)C2` [Compound 9265], the inhibitory constant (Ki) was under 10 nM.
Take `COc1ccc2c(c1)C(=O)N(C[C@@]1(c3ccc(-c4csc(N)n4)cc3)NC(=O)NC1=O)C2` [Compound 9004B]: the inhibition constant Ki was under 10 nM.
Same read-out and setting: with `COc1ccc2c(c1)C(=O)N(C[C@@]1(c3ccc(-c4cc(C)c5ncn(C)c5c4)cc3)NC(=O)NC1=O)C2` [Compound 9738] the figure was under 10 nM; with `COc1ccc2c(c1)C(=O)N(C[C@@]1(c3ccc(-c4nc5ncnc(N)c5n4C)cc3)NC(=O)NC1=O)C2` [Compound 9500], under 10 nM; with `COc1ccc2c(c1)C(=O)N(C[C@@]1(c3cc4cnccc4o3)NC(=O)NC1=O)C2` [Compound 9200], under 10 nM.
The same measure, in the same setting: with `COc1ccc2c(c1)C(=O)N(C[C@@]1(c3ccc(OC(C)C)cc3)NC(=O)NC1=O)C2` [Compound 9628] the figure was under 10 nM; with `COc1ccc2c(c1)C(=O)N(C[C@@]1(c3ccc(-c4cnc(N)nc4)cc3)NC(=O)NC1=O)C2` [Compound 9522], under 10 nM; with `COc1ccc2c(c1)C(=O)N(C[C@@]1(c3cc4c(cc(C)c[n+]4[O-])o3)NC(=O)NC1=O)C2` [Compound 9933], under 10 nM.
The same measure, in the same setting: the same measure for `COc1ccc2c(c1)C(=O)N(C[C@@]1(c3cc(-c4ccccc4)nc(C)n3)NC(=O)NC1=O)C2` [Compound 9261]: under 10 nM; for `CCCc1cc([C@]2(CN3Cc4ccc(OC)cc4C3=O)NC(=O)NC2=O)on1` [Compound 9257]: under 10 nM.
As for `CC#CCOc1ccc2c(c1)C(=O)N(C[C@@]1(c3ccc(-c4ccc5c(cnn5CC5CC5)c4)cc3)NC(=O)NC1=O)C2` [Compound 9748], the Ki was 10 to 100 nM.
For the compound `COc1ccc2c(c1)C(=O)N(C[C@@]1(c3cnn([C@H]4CCOC4)c3)NC(=O)NC1=O)C2` [Compound 9003L], the Ki was under 10 nM.
On the same count and under the same terms, the same measure for `C=C[C@]1(CN2Cc3ccc(OC)cc3C2=O)NC(=O)NC1=O` [Compound 9246]: 10 to 100 nM; for `COc1ccc2c(c1)C(=O)N(C[C@@]1(c3cc(C)no3)NC(=O)NC1=O)C2` [Compound 9256]: under 10 nM; for `COc1ccc2c(c1)C(=O)N(C[C@@]1(c3cc4ccccc4s3)NC(=O)NC1=O)C2` [Compound 9004E]: under 10 nM.
Still for that read-out and setting: the same measure for `COc1ccc2c(c1)C(=O)N(CC1(c3ccc(-c4ccccc4CCN)cc3)NC(=O)NC1=O)C2` (stereo not shown) [Compound 96]: 10 to 100 nM; for `COc1ccc2c(c1)C(=O)N(C[C@@]1(c3cc4ncc(F)cc4o3)NC(=O)NC1=O)C2` [Compound 9225]: under 10 nM.
On the same count and under the same terms, with `COc1ccc2c(c1)C(=O)N(C[C@@]1(c3ccc(Oc4ccc5cnccc5c4)cc3)NC(=O)NC1=O)C2` [Compound 9612] the figure was under 10 nM.
Regarding `COc1ccc2c(c1)C(=O)N(CC1(c3ccc(Oc4cccnc4)cc3)NC(=O)NC1=O)C2` (stereo not shown) [Compound 9610], the inhibition constant (Ki) was under 10 nM.
Still for that read-out and setting: the same measure for `COc1ccc2c(c1)C(=O)N(C[C@@]1(c3ccc(-c4ccc5c(cnn5C(C)C)c4)cc3)NC(=O)NC1=O)C2` [Compound 9742]: under 10 nM; for `COc1ccc2c(c1)C(=O)N(C[C@@]1(CCc3ccc[nH]c3=O)NC(=O)NC1=O)C2` [Compound 9219]: under 10 nM.
Still for that read-out and setting: with `COc1ccc2c(c1)C(=O)N(C[C@@]1(c3ccc(-c4cc(C)c5c(cnn5C)c4)cc3)NC(=O)NC1=O)C2` [Compound 9737] the figure was under 10 nM.

Staying with this assay, now noted: Ki (nM), TACE inhibitory activity, class letters.
Take `O=C1NC(=O)C(CN2Cc3ccc(F)cc3C2=O)(c2ccc3ncccc3c2)N1` (stereo not shown) [Compound 260]: the inhibitory constant (Ki) was under 10 nM.
The same measure, in the same setting: with `COc1ccc2c(c1)CN(CC1(C3CCN(S(=O)(=O)c4ccc(F)cc4F)CC3)NC(=O)NC1=O)C2=O` (stereo not shown) [Compound 254] the figure was 10 to 100 nM; with `COc1ccc2c(c1)CN(CC1(CN[C@H]3CC[C@@H](N)CC3)NC(=O)NC1=O)C2=O` (stereo partly shown) [Compound 293], 10 to 100 nM; with `O=C1NC(=O)[C@@](CN2Cc3ccc(F)cc3C2=O)(c2ccc(-c3ncccn3)cc2)N1` [Compound 162], 100 to 1000 nM.
As for `O=C1NC(=O)[C@@](CN2Cc3ccc(F)cc3C2=O)(c2ccc(-c3ccccn3)s2)N1` [Compound 279], the inhibitory constant (Ki) was 100 to 1000 nM.
As to `Cc1cc(COc2ccc3c(c2)CN(CC2(c4ccccc4)NC(=O)NC2=O)C3=O)c2ccccc2n1` (stereo not shown) [Compound 191], the Ki is under 10 nM.
Consider `COc1ccc2c(c1)CN(CC1(CN[C@H]3CC[C@@H](NC(=O)OC(C)(C)C)CC3)NC(=O)NC1=O)C2=O` (stereo partly shown) [Compound 292], for which the Ki was in the range of 10 to 100 nM.
Same read-out and setting: the same measure for `COc1ccc2c(c1)CN(CC1(c3ccc(F)cc3)NC(=O)NC1=O)C2=O` (stereo not shown) [Compound 11]: under 10 nM; for `Cc1cscc1-c1ccc([C@@]2(CN3Cc4ccc(F)cc4C3=O)NC(=O)NC2=O)cc1` [Compound 154]: 100 to 1000 nM.
For `O=C1NC(=O)[C@](CN2Cc3cc(OCC#CCO)ccc3C2=O)(c2ccc(F)cc2)N1` [Compound 239], the inhibition constant Ki was under 10 nM.
Same read-out and setting: the same measure for `COc1ccc2c(c1)CN(CC1(CNC3CCC3)NC(=O)NC1=O)C2=O` (stereo not shown) [Compound 38]: 10 to 100 nM; for `O=C1NC(=O)[C@](CN2Cc3ccc(F)cc3C2=O)(c2ccc(-c3cccc4cccnc34)cc2)N1` [Compound 155]: under 10 nM.
Same read-out and setting: with `COc1ccc2c(c1)CN(CC1(c3ccc(-c4ccncc4)cc3)NC(=O)NC1=O)C2=O` (stereo not shown) [Compound 30] the figure was under 10 nM; with `O=C1NC(=O)C(CN2Cc3cc(OCc4ccnc(Cl)c4)ccc3C2=O)(c2ccc(F)cc2)N1` (stereo not shown) [Compound 217], under 10 nM.
With `Cc1cc(COc2ccc3c(c2)CN(C[C@@]2(c4ccccc4)NC(=O)NC2=O)C3=O)c2ccccc2n1` [Compound 196], the Ki was under 10 nM.
Same read-out and setting: with `O=C1NC(=O)[C@](CN2Cc3ccc(F)cc3C2=O)(c2ccc(-c3ccccc3C(F)(F)F)cc2)N1` [Compound 133] the figure was under 10 nM.
For the compound `O=C1NC(=O)[C@](CN2Cc3ccc(F)cc3C2=O)(c2ccc(-c3cccnc3)cc2)N1` [Compound 113], the Ki is under 10 nM.
For `CC(C)(C)OC(=O)Oc1ccc2c(c1)CN(CC1(c3ccccc3)NC(=O)NC1=O)C2=O` (stereo not shown) [Compound 190], the inhibition constant Ki was under 10 nM.

Staying with this assay, now noted: Ki Rating, TACE inhibitory activity, Table 3000.
On to `COc1ccc2c(c1)C(=O)N(C[C@@]1(c3ccc(-c4cc(C)c5c(cnn5C(C)C)c4)cc3)NC(=O)NC1=O)C2` [Compound 7017], for which the inhibition constant Ki was under 10 nM.
The same measure, in the same setting: with `COc1ccc2c(c1)C(=O)N(C[C@@]1(c3ccc(-c4ccc5nn(C)cc5c4)cc3)NC(=O)NC1=O)C2` [Compound 6011] the figure was under 10 nM.
On to `Cc1onc(N)c1-c1ccc([C@@]2(CN3Cc4ccc(O)cc4C3=O)NC(=O)NC2=O)cc1` [Compound 4019], for which the inhibition constant (Ki) lay in the range of 100 to 1000 nM.
Same read-out and setting: the same measure for `O=C1NC(=O)[C@](CN2Cc3ccc(OCC#CCO)cc3C2=O)(c2ccc(-c3cnccn3)cc2)N1` [Compound 4010]: under 10 nM; for `Cc1nn(C)c(C)c1-c1ccc([C@]2(CN3Cc4ccc(F)cc4C3=O)NC(=O)NC2=O)cc1` [Compound 3031]: under 10 nM; for `O=C1NC(=O)[C@](CN2Cc3cc(OCc4cccnc4)ccc3C2=O)(c2ccc(F)cc2)N1` [Compound 4005]: under 10 nM.
Still for that read-out and setting: the same measure for `CC#CCOc1ccc([C@]2(CN3Cc4ccc(OC)cc4C3=O)NC(=O)NC2=O)cc1` [Compound 5023]: under 10 nM; for `CC1(CN2Cc3cc(O)c(Cl)cc3C2=O)NC(=O)NC1=O` (stereo not shown) [Compound 5013]: 100 to 1000 nM.
On the same count and under the same terms, with `O=C1NC(=O)[C@](CN2Cc3ccc(OCC(F)(F)F)cc3C2=O)(c2ccc(-c3cnccn3)cc2)N1` [Compound 4028] the figure was 10 to 100 nM.
For the compound `CN(C)c1cc2c(cc1F)C(=O)N(CC1(c3ccc(F)cc3)NC(=O)NC1=O)C2` (stereo not shown) [Compound 2030C], the Ki was 100 to 1000 nM.
`COc1cncc(-c2ccc([C@]3(CN4Cc5ccc(OC)cc5C4=O)NC(=O)NC3=O)cc2)c1` [Compound 4025]: the inhibition constant Ki was under 10 nM.
On the same count and under the same terms, with `COc1ccc2c(c1)C(=O)N(C[C@@]1(c3ccc(-c4nc(N)cc5ccccc45)cc3)NC(=O)NC1=O)C2` [Compound 4033] the figure was under 10 nM; with `COc1ccc2c(c1)C(=O)N(C[C@@]1(c3ccc(-c4ccc5nn(C(C)C)cc5c4)cc3)NC(=O)NC1=O)C2` [Compound 7015], under 10 nM.
On the same count and under the same terms, with `O=C1NC(=O)C(CN2Cc3ccc(OCC#CC4CC4)cc3C2=O)(c2ccc(F)cc2)N1` (stereo not shown) [Compound 8007] the figure was under 10 nM; with `CCOc1ccc2c(c1)C(=O)N(C[C@@]1(c3ccc(-c4cnccn4)cc3)NC(=O)NC1=O)C2` [Compound 4027], under 10 nM.
In the case of `COc1ccc2c(c1)C(=O)N(C[C@@]1(c3ccc(-c4ccc(F)cc4)cc3)NC(=O)NC1=O)C2` [Compound 4020], the inhibitory constant (Ki) was under 10 nM.
Regarding `COc1ccc2c(c1)C(=O)N(C[C@@]1(c3ccc(-c4ncnc5c4ncn5C(C)C)cc3)NC(=O)NC1=O)C2` [Compound 3039], the inhibitory constant (Ki) was under 10 nM.
On the same count and under the same terms, with `Cn1cncc1-c1ccc([C@]2(CN3Cc4ccc(F)cc4C3=O)NC(=O)NC2=O)cc1` [Compound 3002] the figure was under 10 nM; with `CC#CCOc1ccc2c(c1)C(=O)N(C[C@@]1(c3ccc(-c4cc(C)ccn4)cc3)NC(=O)NC1=O)C2` [Compound 4018], under 10 nM; with `COc1ccc2c(c1)C(=O)N(C[C@@]1(c3ccc(-c4cc(C(F)(F)F)cc5nc[nH]c45)cc3)NC(=O)NC1=O)C2` [Compound 3017], 10 to 100 nM.
The same measure, in the same setting: with `COc1ccc2c(c1)CN(CC1(c3ccc(OC(C)C)cc3)NC(=O)NC1=O)C2=O` (stereo not shown) [Compound 5017] the figure was under 10 nM.
